Consider 13 compounds from patent EP4570793A1, “5-HT2A RECEPTOR INVERSE AGONIST, AND PREPARATION METHOD THEREFOR AND USE THEREOF” (Luye Innomind Pharma Shijiazhuang Co., Ltd., priority 2022, dated 2024).

The chains behind the UniProt entries cited, without tags or fusion partners.
UniProt P28223, whole entry: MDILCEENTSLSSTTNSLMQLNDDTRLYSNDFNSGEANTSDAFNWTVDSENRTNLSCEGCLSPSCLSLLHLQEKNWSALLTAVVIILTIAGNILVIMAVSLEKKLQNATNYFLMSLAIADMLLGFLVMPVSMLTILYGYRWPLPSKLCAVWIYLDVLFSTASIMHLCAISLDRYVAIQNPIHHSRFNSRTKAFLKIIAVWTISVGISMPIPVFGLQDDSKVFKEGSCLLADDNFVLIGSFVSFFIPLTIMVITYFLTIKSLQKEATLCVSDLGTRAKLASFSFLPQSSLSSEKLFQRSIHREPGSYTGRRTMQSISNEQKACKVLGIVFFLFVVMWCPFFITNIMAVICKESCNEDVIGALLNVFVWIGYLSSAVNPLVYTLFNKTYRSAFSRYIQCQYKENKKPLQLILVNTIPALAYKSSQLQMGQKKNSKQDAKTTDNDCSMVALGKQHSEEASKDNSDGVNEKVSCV

Data set [1] is described as follows: In-vitro liver microsomal stability (human). Type of data set: in vitro ADME. The settings on record: Human liver microsomes, 1 µM, 0.5 mg/mL, NADPH. Background: Liver microsomes are vesicles of endoplasmic reticulum, rich in cytochrome P450 enzymes.
The nature of data set [2]: In-vitro liver microsomal stability (rat). Type of data set: in vitro ADME. Particulars: Rat liver microsomes, 1 µM, 0.5 mg/mL, NADPH.
In a further data set the target is 5-HT2A receptor (Homo sapiens, UniProt P28223). Briefly: Assay for 5-HT2A receptor inverse agonist activity (NIH3T3-5-HT2A R cells, Bright-Glo luciferase, cell inhibition rate). The settings on record: read-out: 5-HT2A inverse agonist activity IC50, 120 h, luminescence.
The test system of the next data set is SD rats. Briefly: In-vivo pharmacodynamics: DOI-induced head twitch model. The settings on record: reduction of head twitches, single intragastric administration.

Consider `CN1CCC(N(Cc2ccc(F)cn2)C(=O)NCc2cnc(OCC(F)(F)F)cc2Cl)CC1`, for which the figures for the “Remaining amount% at 60 min” value in data set [1] and in data set [2] were 45.97% and 71.34%, respectively. For the compound `CN1CC[C@H](N(Cc2ccc(F)cn2)C(=O)NCc2ccc(OCC(F)(F)F)nc2)[C@H](F)C1` (relative stereo) [Compound 39], the “Remaining amount% at 60 min” value in data set [1] was 48.30%; in data set [2], 25.13%. Further, the IC50 (as a rule, the concentration that gives 50% inhibition) at 5-HT2A receptor is more than 1 µM. Turning to `CN1CC[C@H](N(Cc2ccc(F)cn2)C(=O)NCc2ccc(OCC(F)(F)F)nc2)[C@H](F)C1` (relative stereo) [Compound 41], the IC50 at 5-HT2A receptor came to 0.128 µM.

For `CN1CC[C@H](N(Cc2ccc(F)cc2)C(=O)NCc2ccc3occc3c2)[C@H](F)C1` (relative stereo) [Compound 87A], the IC50 at 5-HT2A receptor stood at 0.665 µM.

Take `CN1CC[C@H](N(Cc2ccc(F)cc2)C(=O)NCc2ccc3occc3c2)[C@H](F)C1` (relative stereo) [Compound 87B]: the IC50 on 5-HT2A receptor was found to be 0.0137 µM. Turning to `CN1CC[C@H](N(Cc2ccc(F)cc2)C(=O)NCc2ccc(OCC(F)(F)F)nc2F)[C@H](F)C1` (relative stereo) [Compound 88A], the IC50 at 5-HT2A receptor was determined as 0.142 µM. `CN1CC[C@H](N(Cc2ccc(F)cc2)C(=O)NCc2ccc(OCC(F)(F)F)nc2F)[C@H](F)C1` (relative stereo) [Compound 88B]: the IC50 at 5-HT2A receptor was more than 1 µM. With `CN1CC[C@H](N(Cc2ccc(F)cc2)C(=O)NCc2cnc(OC3CC(F)(F)C3)c(F)c2)[C@H](F)C1` (relative stereo) [Compound 89A], the IC50 at 5-HT2A receptor was found to be 0.14 µM. On to `CN1CC[C@H](N(Cc2ccc(F)cc2)C(=O)NCc2cnc(OC3CC(F)(F)C3)c(F)c2)[C@H](F)C1` (relative stereo) [Compound 89B], for which the 50% inhibitory concentration (IC50) at 5-HT2A receptor is more than 1 µM. Regarding `CN1CCC(N(Cc2ccc(F)cc2)C(=O)NCc2ccc(OCC(F)(F)F)nc2)C(F)C1` (single isomer, unassigned) [Compound 68A], the “Remaining amount% at 60 min” value in data set [1] is 42.89%. The effective dose in the data set with SD rats was determined as 0.22 mg/kg. Moreover, the half-maximal inhibitory concentration (IC50) at 5-HT2A receptor is 0.0764 µM. On to `CN1CCC(N(Cc2ccc(F)cc2)C(=O)NCc2ccc(OCC(F)(F)F)nc2)C(F)C1` (single isomer, unassigned) [Compound 68B], for which, in data set [1], the “Remaining amount% at 60 min” value worked out at 30.07%. Moreover, the IC50 on 5-HT2A receptor was more than 1 µM. As for `CN1CCC(N(Cc2ccc(F)cc2)C(=O)NCc2ccc(OCC(F)(F)F)nc2)C(F)C1` (single isomer, unassigned) [Compound 68C], the “Remaining amount% at 60 min” value in data set [1] is recorded as 20.2%. For the same compound, the IC50 at 5-HT2A receptor is more than 1 µM. For `CN1CCC(N(Cc2ccc(F)cc2)C(=O)NCc2ccc(OCC(F)(F)F)nc2)C(F)C1` (single isomer, unassigned) [Compound 68D] the same measures were 11.9% and more than 1 µM.
